This note sets out measurements from US20210061861A1, “D-PEPTIDIC COMPOUNDS FOR VEGF” (Reflexion Pharmaceuticals, Inc., priority 2019, published 2021).

Sequences of proteins named here, by UniProt entry; tags and fusion partners are left off. Residues count along the entry.
UniProt P15692, 214-315 limits assumed: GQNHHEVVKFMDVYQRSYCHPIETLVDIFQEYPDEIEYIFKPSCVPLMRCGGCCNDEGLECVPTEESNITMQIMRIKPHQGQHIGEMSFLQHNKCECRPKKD

Where a chain is given by its changes, count along the chain named.

The chains are these.
B1: 979102 (designed binder)
chain: FNIQWICKNAKEDAIAELKKAGITEPHVISFINHAPSCSHVNGLKNAILKAHA
modifications: all residues D-amino acids (Gly achiral); c7-c38 disulfide
B2: 979107 (designed binder)
chain: B1 chain with F1I, N2P, I6V
modifications: all residues D-amino acids (Gly achiral); c7-c38 disulfide
B3: 979108 (designed binder)
chain: B1 chain with F1P, N2S, I3V
modifications: all residues D-amino acids (Gly achiral); c7-c38 disulfide
B4: 979109 (designed binder)
chain: B1 chain with F1R, I6V, S37N
modifications: all residues D-amino acids (Gly achiral); c7-c38 disulfide

This experiment has as its target L-VEGF-A (8-109) (Homo sapiens (Human)) (UniProt P15692). Description: SPR per Examples 7, 8, 11 (method not named in Table 4).
Take B1: the Kd – broadly, a measure of binding affinity in units of concentration – worked out at 5.2 nM.

Take B2: the Kd was determined as 5.2 nM.

The molecule B3 came in with a Kd of 5.8 nM.

In the case of B4, the Kd was 3.7 nM.
